# Data from patent publication US5175166A, “Muscarinic agonists” (The University of Toledo, priority 1991, dated 1992).
# System: muscarinic receptors
# Assay: Phosphoinositide (PI) response / inositol phosphate formation in brain slices (region not stated)
# Conditions: carbachol under assay conditions, 45 min incubation
# Procedure: The slices were gently agitated at 37° C. in a shaking water bath for 45 min with three changes to buffer.
# The sample loading and solution delivery were performed by using disposable plastic syringes; an approximate flow rate of 10-15 ml/min was maintained.
smiles,measurement,value
"C[N+](C)(C)CCOC(N)=O [carbachol, reference compound]",increase in IP's accumulation over the basal unstimulated value,3-5 fold
